Experimental data as given in ChEMBL document CHEMBL1125338, “Synthesis, chemical, and biological properties of vinylogous hydroxamic acids: dual inhibitors of 5-lipoxygenase and IL-1 biosynthesis” (J Med Chem, 1992).

Target: T1, Polyunsaturated fatty acid 5-lipoxygenase (Rattus norvegicus, UniProt P12527)
T1 sequence (P12527 whole entry): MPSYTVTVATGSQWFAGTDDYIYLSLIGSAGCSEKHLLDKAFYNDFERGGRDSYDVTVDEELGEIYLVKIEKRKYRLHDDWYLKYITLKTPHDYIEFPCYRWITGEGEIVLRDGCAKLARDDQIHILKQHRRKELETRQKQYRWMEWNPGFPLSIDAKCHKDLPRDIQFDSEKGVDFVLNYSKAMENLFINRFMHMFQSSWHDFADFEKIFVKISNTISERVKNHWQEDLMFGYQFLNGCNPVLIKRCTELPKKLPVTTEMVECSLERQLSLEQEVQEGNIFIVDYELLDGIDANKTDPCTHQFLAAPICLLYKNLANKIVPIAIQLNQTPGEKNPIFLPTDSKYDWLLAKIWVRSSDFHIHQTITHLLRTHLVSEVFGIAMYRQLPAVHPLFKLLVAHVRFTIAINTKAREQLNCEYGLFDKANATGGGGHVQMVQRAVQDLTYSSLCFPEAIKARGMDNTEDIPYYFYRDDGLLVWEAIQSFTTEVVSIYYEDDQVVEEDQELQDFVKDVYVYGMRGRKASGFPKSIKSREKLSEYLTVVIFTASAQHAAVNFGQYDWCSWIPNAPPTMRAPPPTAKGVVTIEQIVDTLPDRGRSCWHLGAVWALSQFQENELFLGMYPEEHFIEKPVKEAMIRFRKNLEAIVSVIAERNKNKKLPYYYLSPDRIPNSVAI
Assay: inhibitory activity against 5-lipoxygenase in rat basophilic leukemia cell line.
Format: cell-based, RBL-1

CN(O)/C=C\C(=O)c1ccc(-c2ccccc2)cc1
IC50: 60 nM
